This data set is described as follows: Solubility of guanidine compounds in water, OECD Guideline 105 flask method.

In turn, Guanidine carbonate returned a Solubility in water of 330 mM.

For the origin of these results see patent US20140017893A1, “CMP POLISHING LIQUID AND METHOD FOR POLISHING SUBSTRATE USING THE SAME” (Hitachi Chemical Company, Ltd., priority 2007, published 2014).
